Data: PubChem BioAssay (NCI)
Several values for one entry are separate records, joined by “and”; a condition that tells them apart may be missing. Equal entries are not always repeated. The list shows a part of the results, in another mix than the full data.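 Negative percent growth values reflect cell death: -40 means 40% of the cells present at the start died, and -100 means all died.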 Activity calls are given as the source filed them. How the source made its calls: active means growth percent below 10; inactive means the rest.

Tests used:
Test in all cases: NCI-60 one-dose screen, 48 h (100 = growth as untreated, 0 = no growth, -100 = all killed)
Settings in all cases: 10 µM unless noted
[1] = system: MOLT-4 leukemia
[2] = system: SR leukemia
[3] = system: RPMI-8226 leukemia
[4] = system: OVCAR-8 ovarian
[5] = system: OVCAR-5 ovarian
[6] = system: OVCAR-4 ovarian
[7] = system: SK-OV-3 ovarian
[8] = system: IGROV1 ovarian
[9] = system: OVCAR-3 ovarian
[10] = system: HS 578T breast

Measured: growth

NP(=O)(N(CCCl)CCCl)N1CC1 (stereo not given)
inactive: [1] 81.1% | [2] 84.2% | [3] 96.5% | [4] 101% | [5] 104% | [6] 105% | [7] 109% | [8] 98.5% | [9] 106%

O=C(OCCNCCCl)c1ccccc1
inactive: [1] 90.7% | [2] 90.8% | [3] 99% | [4] 120% | [5] 97.6% | [6] 104% | [7] 110% | [8] 101% | [9] 109%

O=C1NC(c2ccccc2)(c2ccccc2)C(=O)N1P(=O)(Oc1ccccc1)Oc1ccccc1
inactive: [1] 93% | [2] 90.4% | [3] 91.2% | [4] 101% | [5] 100% | [6] 100% | [7] 104% | [8] 104% | [9] 112%

O=C(c1ccc(F)cc1)N(CCCl)CCCl
inactive: [1] 92.5% | [2] 98% | [3] 102% | [4] 100% | [5] 104% | [6] 110% | [7] 95.6% | [8] 107% | [9] 114%

ClCCN1Cc2ccccc2C1
inactive: [1] 113% | [2] 72.7% | [3] 94.5% | [4] 103% | [5] 96.5% | [6] 94.2% | [7] 111% | [8] 101% | [9] 102% | [10] 97.6%

O=C(O)Cc1ccc(N(CCCl)CCCl)cc1
inactive: [1] 91.2% | [2] 64.3% | [3] 95.5% | [4] 95.1% | [5] 108% | [6] 104% | [7] 97.2% | [8] 83.2% | [9] 94.1%

CCOC(=O)Nc1ccc([As](=O)(O)O)c(O)c1
inactive: [1] 93.2% | [2] 110% | [3] 99.4% | [4] 106% | [5] 114% | [6] 97.3% | [7] 107% | [8] 89.3% | [9] 108% | [10] 105%

NC(=S)N/N=C/c1ccc(N(CCF)CCCl)cc1
inactive: [1] 71.4% | [2] 76.3% | [3] 79.6% | [4] 84.6% | [5] 109% | [6] 82.7% | [7] 103% | [8] 89.8% | [9] 106% | [10] 109%

O=[N+]([O-])N=C1NCCN1
inactive: [1] 106% and 117% | [2] 99.2% and 106% | [3] 92.6% and 98.2% | [4] 111% and 98.8% | [5] 112% and 92.7% | [6] 122% and 111% | [7] 113% and 107% | [8] 113% and 86.3% | [9] 112% and 109% | [10] 110% and 81.3%

Cc1ccc(S(=O)(=O)CN(CCCl)CCCl)cc1
inactive: [1] 99.8% | [2] 104% | [3] 103% | [4] 110% | [5] 116% | [6] 96.9% | [7] 97.9% | [8] 123% | [9] 110% | [10] 108%

NNc1ccc([N+](=O)[O-])cc1[N+](=O)[O-]
inactive: [1] 91.8% | [2] 76.7% | [3] 82.1% | [4] 103% | [5] 101% | [6] 115% | [7] 97.4% | [8] 100% | [9] 110% | [10] 110%

CCOP(=S)(OCC)OCC
inactive: [1] 111% | [2] 106% | [3] 113% | [4] 93.6% | [5] 98.7% | [6] 100% | [7] 113% | [8] 109% | [9] 112% | [10] 102%

COc1cccc(OC)c1N(CCCl)CCCl
inactive: [1] 93.4% | [2] 96.1% | [3] 103% | [4] 113% | [5] 96.2% | [6] 98.4% | [7] 102% | [8] 90.1% | [9] 106% | [10] 99.7%

Cn1c(COc2ccc([N+](=O)[O-])cc2[N+](=O)[O-])cnc1[N+](=O)[O-]
inactive: [1] 97.7% | [2] 104% | [3] 105% | [4] 106% | [5] 107% | [6] 97.9% | [7] 88.8% | [8] 103% | [9] 108% | [10] 112%

CN(CCCl)/N=N/c1nc2c([nH]1)c(=O)n(C)c(=O)n2C
inactive: [1] 91.7% | [2] 94.4% | [3] 108% | [4] 102% | [5] 103% | [6] 106% | [7] 85.5% | [8] 107% | [9] 107% | [10] 95.4%

O=C1OCCN1P(=O)(Cl)N1CCOC1=O
inactive: [1] 92.2% | [2] 89.7% | [3] 98.8% | [4] 93.6% | [5] 112% | [6] 110% | [7] 98.8% | [8] 110% | [9] 116% | [10] 107%

O=[N+]([O-])c1cc(Cl)c(O)c([N+](=O)[O-])c1
inactive: [1] 104% | [2] 101% | [3] 102% | [4] 89.5% | [5] 103% | [6] 104% | [7] 97.6% | [8] 109% | [9] 114% | [10] 98%

CCOC(=O)N1CCN(CCCl)CC1
inactive: [1] 114% | [2] 111% | [3] 107% | [4] 107% | [5] 103% | [6] 96.5% | [7] 98.3% | [8] 105% | [9] 104% | [10] 98.8%

CC(Cl)CN(CC(C)Cl)C(=O)c1ccccc1 (stereo not given)
inactive: [1] 95.3% | [2] 90.3% | [3] 104% | [4] 108% | [5] 109% | [6] 63.9% | [7] 114% | [8] 107% | [9] 107% | [10] 90.5%

O=C(O)/C=C\c1cccc(N(CCCl)CCCl)c1
inactive: [1] 95.5% | [2] 75% | [3] 93.2% | [4] 92.1% | [5] 105% | [6] 119% | [7] 113% | [8] 70.9% | [9] 117% | [10] 104%

CCN(CCCl)CC1COc2ccccc2O1 (stereo not given)
inactive: [1] 101% | [2] 102% | [3] 97.9% | [4] 102% | [5] 99.6% | [6] 113% | [7] 109% | [8] 109% | [9] 116% | [10] 95.3%

N/C(=N\N=C\c1ccc([N+](=O)[O-])o1)N[N+](=O)[O-]
inactive: [1] 88.2% | [2] 91.6% | [3] 86.7% | [4] 90.3% | [5] 113% | [6] 103% | [7] 96.5% | [8] 108% | [9] 103% | [10] 99.7%

CC(C)=N/N=C(\N)N[N+](=O)[O-]
inactive: [1] 114% | [2] 98.1% | [3] 89.9% | [4] 97% | [5] 106% | [6] 111% | [7] 104% | [8] 110% | [9] 102% | [10] 108%

CCCOP(=S)(Nc1nc(N)cc(=O)[nH]1)OCCC
inactive: [1] 94.6% | [2] 80.9% | [3] 93.4% | [4] 101% | [5] 93.8% | [6] 94.4% | [7] 97.9% | [8] 70% | [9] 103% | [10] 89.4%

O=[N+]([O-])c1ccc(-c2cc([N+](=O)[O-])c(O)c([N+](=O)[O-])c2)cc1
inactive: [1] 99.6% and 90.9% | [2] 98.4% and 81.5% | [3] 107% and 96% | [4] 107% and 114% | [5] 96.8% and 107% | [6] 112% and 100% | [7] 100% and 104% | [8] 107% and 126% | [9] 115% and 110% | [10] 106%

O=C1OP(=O)(Cl)Oc2ccccc21 (stereo not given)
inactive: [1] 86.9% | [2] 101% | [3] 96.5% | [4] 101% | [5] 111% | [6] 110% | [7] 98.7% | [8] 107% | [9] 112% | [10] 83.7%

O=[N+]([O-])c1ccc(CCCCCCc2ccc([N+](=O)[O-])cc2[N+](=O)[O-])c([N+](=O)[O-])c1
inactive: [1] 19.7% | [2] 79.7% | [3] 82.3% | [4] 96.2% | [5] 112% | [6] 81.7% | [7] 111% | [8] 99.5% | [9] 92.8% | [10] 88.6%

Cc1ccc(NCCCl)c2c(=O)c3ccccc3sc12
inactive: [1] 105% | [2] 92.2% | [3] 103% | [4] 108% | [5] 93.5% | [6] 102% | [7] 117% | [8] 89.5% | [9] 111% | [10] 108%

O=[N+]([O-])c1cc2cn[nH]c2cc1[N+](=O)[O-]
inactive: [1] 98.7% | [2] 99% | [3] 95.2% | [4] 115% | [5] 110% | [6] 116% | [7] 99.8% | [8] 89.8% | [9] 116% | [10] 84.1%
